The results in this text go back to ChEMBL document CHEMBL1137867, “Design and synthesis of 3'-ureidoadenosine-5'-uronamides: effects of the 3'-ureido group on binding to the A3 adenosine receptor” (Bioorg Med Chem Lett, 2004).

By UniProt entry, the sequences of proteins in these tests, tags left out.
UniProt P30542, whole entry: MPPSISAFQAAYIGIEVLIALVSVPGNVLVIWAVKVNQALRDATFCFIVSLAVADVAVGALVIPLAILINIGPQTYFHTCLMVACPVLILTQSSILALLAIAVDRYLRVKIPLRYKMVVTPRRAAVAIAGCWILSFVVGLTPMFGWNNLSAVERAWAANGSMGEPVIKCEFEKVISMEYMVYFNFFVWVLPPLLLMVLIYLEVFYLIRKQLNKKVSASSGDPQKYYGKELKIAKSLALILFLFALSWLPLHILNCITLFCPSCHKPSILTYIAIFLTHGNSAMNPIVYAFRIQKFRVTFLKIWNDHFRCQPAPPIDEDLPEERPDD
UniProt P0DMS8, whole entry: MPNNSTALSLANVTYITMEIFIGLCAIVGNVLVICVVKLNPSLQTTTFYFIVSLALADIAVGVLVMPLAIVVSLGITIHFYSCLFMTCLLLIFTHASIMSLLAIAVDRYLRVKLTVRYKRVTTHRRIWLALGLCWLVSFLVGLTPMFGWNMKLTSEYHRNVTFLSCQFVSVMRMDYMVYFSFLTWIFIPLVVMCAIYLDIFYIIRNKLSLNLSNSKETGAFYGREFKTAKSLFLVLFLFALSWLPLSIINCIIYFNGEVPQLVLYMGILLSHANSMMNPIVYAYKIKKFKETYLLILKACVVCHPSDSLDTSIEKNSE

Where only a bound is given, the exact number is not on record here.

Assay [1] concerns the target Adenosine receptor A1 (Homo sapiens) (UniProt P30542). The assay is described as follows: Binding affinity towards recombinant human Adenosine A1 receptor was determined using [3H]R-PIA (2.0 nM) as radioligand.
For assay [2], the target named is Adenosine receptor A2a (Homo sapiens) (UniProt P29274). Kind of assay: Binding affinity towards recombinant human Adenosine A2a receptor was determined using [3H]CGS-21680 (10 nM) as radioligand.
The target of assay [3] is Adenosine receptor A3 (Homo sapiens) (UniProt P0DMS8). Kind of assay: Binding affinity towards human Adenosine A3 receptor stably transfected in CHO cells was determined using [125I]I-AB-MECA (1.0 nM) as radioligand. The class given is cell-based.

The term inhibition denotes how much of the control response was suppressed. Regarding `CNC(=O)C1OC(n2cnc3c(Nc4cccc(I)c4)nc(Cl)nc32)C(O)C1NC(N)=O` (configuration not stated), the inhibition in assay [1] was below 3%; in assay [2], 3%; in assay [3] it was 24%.

As for `CNC(=O)C1OC(n2cnc3c(Nc4cccc(I)c4)ncnc32)C(O)C1NC(N)=O` (configuration not stated), the inhibition in assay [1] was below 3%; in assay [2], below 3%; in assay [3], 9%.

For the compound `CNC(=O)C1OC(n2cnc3c(NC)ncnc32)C(O)C1NC(N)=O` (configuration not stated), the inhibition in assay [1], in assay [2] and in assay [3] was below 3% each time.

For the compound `CNC(=O)C1OC(n2cnc3c(NC)nc(Cl)nc32)C(O)C1NC(N)=O` (configuration not stated), the inhibition in assay [1] is below 3%; in assay [2], below 3%; in assay [3], 8%.
